Measurements taken from patent US20080027010A1, “Treatment of refractory cancers using Na+/K+-ATPase inhibitors” (Bionaut Pharmaceuticals, Inc., priority 2004, published 2008).

Tests used:
Na^+/K^+-ATPase = molecular target: T1, Na^+/K^+-ATPase (Canis lupus familiaris, UniProt P50997); experiment: Na+/K+-ATPase inhibition, enzyme preparation from dog kidney (Sigma); format: biochemical
T1 construct: enzyme preparation from dog kidney (Sigma); purchased Sigma; host or cells: dog kidney tissue
Description: The relative activity of the bufadienolide class of cardiac glycosides was determined to be much greater then cardenolide class, Anti-prolerafitive IC50 values were determined by MTS assay using an A549 cell line. Na^+/K^+-ATPase inhibition IC50 values were obtained using enzyme preparation from dog kidney (Sigma).

rats = experiment: Oral LD50 in rats; settings: p.o.
[1] = 3.5 mg/d once, 1.5 mg for two days, 1 mg/d thereafter; cited from earlier work

For `C[C@@H]1OC(OC2C=C3CCC4C(CC[C@]5(C)[C@@H](c6ccc(=O)oc6)CC[C@]45O)[C@@]3(C)CC2)[C@H](O)[C@H](O)[C@H]1O` (stereo partly drawn) [BNC-4, proscillaridin], the “potency relative to BNC-151, inhibition of Na^+/K^+-ATPase” value (Na^+/K^+-ATPase) is given as “about 10 times”, the “toxicity relative to Digitoxin” value (rats) is given as “about half as toxic as Digitoxin” and the “time to achieve the optimal therapeutic level” value [1] is given as “about 60 hours”.
